From patent US9249163B2, “PDE10a inhibitors for the treatment of type II diabetes” (Janssen Pharmaceutica, NV, priority 2013, dated 2016)

Protein sequences, listed by entry. Tags and fused reporters are not part of them. Residues count along the entry.
UniProt Q9Y233, 267-1055: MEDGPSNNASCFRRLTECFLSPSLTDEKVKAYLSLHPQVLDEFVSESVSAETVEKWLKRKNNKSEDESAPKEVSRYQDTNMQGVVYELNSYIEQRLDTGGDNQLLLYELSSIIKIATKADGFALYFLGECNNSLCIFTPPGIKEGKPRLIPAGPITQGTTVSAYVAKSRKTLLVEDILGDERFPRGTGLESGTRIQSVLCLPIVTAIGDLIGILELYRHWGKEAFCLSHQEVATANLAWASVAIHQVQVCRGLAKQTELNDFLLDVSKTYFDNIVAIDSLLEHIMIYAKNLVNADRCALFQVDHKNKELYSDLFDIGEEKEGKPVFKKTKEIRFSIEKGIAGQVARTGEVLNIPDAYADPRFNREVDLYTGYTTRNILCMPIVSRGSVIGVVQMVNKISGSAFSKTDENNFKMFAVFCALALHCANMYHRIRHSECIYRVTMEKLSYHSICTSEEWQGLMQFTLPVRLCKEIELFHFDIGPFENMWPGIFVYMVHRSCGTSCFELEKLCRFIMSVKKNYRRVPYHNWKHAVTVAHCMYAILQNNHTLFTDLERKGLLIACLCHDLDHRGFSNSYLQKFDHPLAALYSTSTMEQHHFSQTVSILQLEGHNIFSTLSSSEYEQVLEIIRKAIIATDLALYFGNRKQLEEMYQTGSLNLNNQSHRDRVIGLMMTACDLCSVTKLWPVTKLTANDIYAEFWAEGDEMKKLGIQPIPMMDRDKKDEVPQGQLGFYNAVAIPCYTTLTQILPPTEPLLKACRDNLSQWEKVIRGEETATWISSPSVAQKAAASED

Legend:
[1] = biological target: Human recombinant PDE10A2 (Homo sapiens (Human), UniProt Q9Y233); test: In vitro hPDE10a (human recombinant PDE10A2, scintillation proximity assay); assay type: biochemical; conditions: human recombinant PDE10A2, 60 nM cAMP, 60 min at room temperature; read-out: hPDE10a2 IC50
Description: Human recombinant PDE10A2 was expressed in Sf9 cells, using a recombinant baculovirus construct containing the full length sequence containing a 6×His sequence following the start Met to allow metal affinity purification of the recombinant protein. Cells were harvested and the phosphodiesterase protein was purified by metal chelate chromatography on Ni-sepharose 6FF.
The affinity of the compounds of Formula (I) for phophodiesterases (PDE) was measured by a scintillation proximity assay (SPA). PDE Yttrium Silicate SPA beads allow PDE activity to be measured by direct binding of the primary phosphate groups of non-cyclic AMP or GMP to the beads via a complex iron chelation mechanism. The amount of bound tritiated product ([^3H]-AMP) is measured by liquid scintillation counting.
The compounds were dissolved and diluted in 100% DMSO in polystyrene plates to a concentration of 100-fold the final concentration in the assay. […] After sedimentation of the beads for 30 min, the radioactivity was measured in a Perkin Elmer Topcount scintillation counter and results were expressed as cpm. […]
Data were calculated as the percentage of inhibition of total activity measured in the absence of test compound (% control).

[2] = PDE10a-perfused brain permeability study (plasma and brain concentrations); conditions: male, Sprague-Dawley, rat

IC50 [1]: 9 nM
Kp at 2 h [2]: 3.18
Compound: Nc1ccc(-c2cnc(N3CCOCC3)c3nc(COc4ccc5ccccc5n4)cn23)cn1 [Cpd 122, 5-(8-Morpholino-2-((quinolin-2-yloxy)methyl)imidazo[1,2-a]pyrazin-5-yl)pyridin-2-amine methane sulfonic acid salt]

Counter-ions that a name gives are not always drawn.
